Data from US20120088688A1, “IN VITRO ASSAY FOR IDENTIFICATION OF ALLERGENIC PROTEINS” (BIOVATOR TECHNOLOGIES AB, priority 2005, published 2012).

System: Mono Mac 6 cells
Experiment: Micro array gene expression profiling (HG_U95Av2 chip) of Mono Mac 6 cells following allergen treatment
Format: cell-based, human
Conditions: for Number of up regulated genes: Mono Mac 6 cells
Method: The cell line Mono Mac 6 (AstraZeneca Cell Storage and Retrieval, Alderley Park, UK) was cultivated in RPMI 1640 medium with 10 mM HEPES buffer (Gibco, UK), 2 mM L-glutamine, 9 μg/mL human insulin, 1.0 mM sodium pyruvate, 10% fetal bovine serum, 5.6 μl/mL glucose, 100 U/mL penicillin and 100 μg/ml streptomycin. Fresh medium for cultivation was added or changed frequently (every 2:nd or 3:rd day), maintaining a cell density of viable cells/mL between 0.5×10^6 and 1.0×10^6. The cell line was in suspension/loosely adherent and sub cultures were prepared when needed by scraping. The plates were cultivated in an inclined position at 37° C. and 5% CO2 in a Galaxy R (Lab Rum Klimat Ab, Sweden) incubator
Cells were treated with four different allergens, according to table 2, in duplicate cultures. The test substances were all diluted in double distilled water. The duplicate cultures were treated at different exposure days. All treatments were 6 hours and control cells were left unexposed.
Benzylpenicillin sodium salt (PenicillinG) was 13752, Sigma Aldrich, Germany; Albumin human was A9511, Sigma Aldrich, Germany and Aspergillus fumigatus was ALK15142 from Apoteket, Sweden and contained, except relevant allergen, also glycerol, sodium chloride, sodium hydrogen carbonate and water for injection^33. 20 individual cultures with 500 000 cells per culture were treated identical for each substance. After 6 h exposure identical treated cells were harvest and pooled into a 50 ml Falcontube, pelleted at 540 g for 5 minutes in 7° C. The supernatant was discarded and the cells were washed in phosphate-buffered saline (with 0.5% bovine serum albumin), transferred to an eppendorftube and centrifuged at 150 g for 2 minutes at room temperature. The supernatant was removed and the cells were freeze-dried with liquid nitrogen and thereafter put into −152° C. freezer until further preparation.
Experimental procedures were performed according to Gene Chip®Expression Analysis Technical Manual (rev1, 2001) with minor modifications as described. Total RNA was prepared from frozen cells, according to Qiagen Rneasy Mini kit (Qiagen/WVR, Sweden). 30 μg of total RNA was used for cDNA synthesis and in vitro transcript labeling with biotin was performed according to Enzo BioArray RNA Transcription Labeling Kit (Enzo, U.S.A). cRNA quality was analyzed on a Agilent Bioanalyser 2001 (Agilent Technologies, U.S.A) and the concentration was measured on a Nano Droop (Saveen Werner, Sweden). 15 μg of fragmented cRNA was added to the hybridization-cocktail and hybridized to the HG_U95Av2 chip (Affymetrix, U.S.A) for 16 h at 45° C. The arrays were washed and stained with biotinylated anti streptavidin antibodies according to the EukGE_W2v4 protocol (Affymetrix, U.S.A) in the fluid station (Affymetrix, U.S.A).
Data obtained were analyzed using the MAS 5.0 model base. A detection call was calculated for all probe sets, representing if the transcript of a particular gene was present or absent, all absent genes were excluded from analysis.
To verify outliers and trends in data exploratory analysis was made with principle component analysis (PCA). Statistic analysis was made using student's t-test. It weights the variance in individual groups with the variance in all groups. Student's t-test was used to test for statistical significance compared with control. The p-value obtained describes the probability of statistically finding a false positive probe set. Fold change (fc) represents the quotient between the two compared chip.
The average signal value from all treated groups were compared with control signals.
All probe sets with signal value<50 in all groups were excluded from analysis. […] The remaining probe sets were ranked after fc.

albumin: Albumin human A9511, Sigma Aldrich; non allergenic protein
Number of up regulated genes (cut off fc >2): 4
Number of up regulated genes (cut off fc >4): 1
Number of up regulated genes (cut off fc >6): 0
Number of up regulated genes (cut off fc >10): 0
vs ctrl fc, GNB2 (gene GNB2): 3.0
vs ctrl fc, IFITM3 (gene IFITM3): 2.7
vs ctrl fc, SPR (gene SPR (Sepiapterin reductase)): 4.3
vs ctrl fc, XK (gene XK): 3.0
